## scFv variants of Ab-14 (heavy chain) against a SARS-CoV-2 spike peptide

All variants were tested on one target, the spike HR2 peptide PDVDLGDISGINAS (SARS-CoV-2).

Ab-14 is the parent antibody, in scFv form: VH, then the linker GGGGSGGGGSGGGGS, then VL. The light chain is unchanged in all variants.
VH: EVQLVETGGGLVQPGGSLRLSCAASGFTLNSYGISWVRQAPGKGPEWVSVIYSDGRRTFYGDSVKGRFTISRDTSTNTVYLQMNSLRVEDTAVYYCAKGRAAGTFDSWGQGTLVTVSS
VL: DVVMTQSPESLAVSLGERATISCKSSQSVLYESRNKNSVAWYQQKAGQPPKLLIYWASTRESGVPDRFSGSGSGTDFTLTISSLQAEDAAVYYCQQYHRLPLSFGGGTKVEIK

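The starting antibody came from a phage panning campaign against this peptide. In library AAYL49, one, two or three CDR residues were substituted; doubles and triples were drawn at random. AlphaSeq pools MATa yeast showing the antibodies with MATalpha yeast showing the peptide. After mating in shaken culture at 30 °C for 16 h, diploids were selected and their barcode pairs sequenced. A regression on co-assayed BCL2-family reference pairs converts the normalised counts of each replicate to an apparent Kd. There are three technical replicates.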

Positions count from residue 1 of the parent VH; V50P puts P in place of V.
All variants listed here change V50 of the VH, counted from its first residue.
Values are apparent Kd, the geometric mean of the replicates that gave a signal; lower means stronger binding.
"nd" marks a missing value. The strain was present, yet no cells mated with the target were sequenced in any replicate, which points to weak or no binding.
Three control strains display no target. For library AAYL49, 15% of the pairings with them gave a signal, with a median of 11 µM and one signal in twenty below 680 nM, so weak values seen in few replicates may be background.

With V50P/S63N the result was 10 µM (1 of 3 replicates). With V50L/G55K/G99W the result was 7.3 µM (1 of 3 replicates). With G26C/V50G/T58P the result was 43 µM (2 of 3 replicates). For V50D/Y52A/F59H, the assay gave 63 µM (3 of 3 replicates). The variant V50P/S53I/A101C showed nd (0 of 3 replicates). For V50R/R100T/A102Q, the assay gave 1.6 µM (1 of 3 replicates). The variant V50M/D106L showed nd (0 of 3 replicates). With T28P/V50T/F105S the result was nd (0 of 3 replicates). The variant G26V/V50Y/A101K gave 1.5 µM (1 of 3 replicates).

For V50F/R100M, the assay gave nd (0 of 3 replicates). The variant V50M/S63I gave 19 µM (1 of 3 replicates). With G33F/V50N/D62C the result was nd (0 of 3 replicates). The variant F27G/V50H/V64A showed 2.4 µM (1 of 3 replicates). With N30E/V50I/G103A the result was nd (0 of 3 replicates). The variant Y32D/V50D/K65T showed nd (0 of 3 replicates). The variant V50S/Y52K/G61H showed nd (0 of 3 replicates). With V50D/T58L/A102I the result was nd (0 of 3 replicates). The variant V50M/A101N/F105W gave 19 µM (1 of 3 replicates).

With V50S/G99L/G103N the result was 2.2 µM (1 of 3 replicates). For L29P/V50I/R100F, the assay gave nd (0 of 3 replicates). With V50I/G61M/A102K the result was nd (0 of 3 replicates). The variant V50E/I51C/S107T showed nd (0 of 3 replicates). The variant V50E/V64G/F105A gave nd (0 of 3 replicates). The variant L29Q/I34L/V50F showed 340 µM (3 of 3 replicates). The variant V50T/Y52L/G103T gave 14 µM (2 of 3 replicates). With F27T/V50Y/Y60P the result was 69 µM (2 of 3 replicates). With T28G/I34T/V50K the result was 52 µM (1 of 3 replicates).

For V50H/I51D/R57E, the assay gave 150 µM (3 of 3 replicates). The variant Y32C/V50L/R100S showed nd (0 of 3 replicates). With N30K/Y32R/V50T the result was 16 µM (1 of 3 replicates). For N30T/V50N/D106R, the assay gave nd (0 of 3 replicates). With V50I/S53W/R56P the result was 43 µM (2 of 3 replicates). With S31R/V50Q/F59V the result was nd (0 of 3 replicates). With G33Q/V50T/I51E the result was nd (0 of 3 replicates). For V50F/A101P/D106V, the assay gave nd (0 of 3 replicates). With Y32M/G33E/V50D the result was nd (0 of 3 replicates).

For I34C/V50H/R56W, the assay gave 270 µM (1 of 3 replicates). With G26I/V50K/G103F the result was 49 µM (1 of 3 replicates). The variant G33L/V50S/D62L showed nd (0 of 3 replicates). With G33H/V50Q/G99A the result was nd (0 of 3 replicates).

From the list, the first 5 with no signal in any replicate:

changes,Kd (apparent),seen in
V50P/S53I/A101C,nd,0/3
V50M/D106L,nd,0/3
T28P/V50T/F105S,nd,0/3
V50F/R100M,nd,0/3
G33F/V50N/D62C,nd,0/3

From the AlphaSeq antibody data of Engelhart et al. 2022 (doi:10.1038/s41597-022-01779-4), copy in the FLAb collection.